Source: US11787787B2

Legend:
[1] = system: C57BL/6 wild-type adult male mice; test: Voluntary alcohol intake assay (drinking-in-the-dark, 2-bottle choice), wild-type mice; details: wild-type C57BL/6 male mice, i.p. 3 mg/kg and 10 mg/kg, 10% ethanol, 4 hours/day
Method: Voluntary Alcohol Intake Assay:
C57BL/6 wild-type adult male mice were exposed to a limited access (4 hours/day), 2-bottle choice (water vs. 10% ethanol), drinking-in-the-dark (DID) protocol during their active cycle (dark phase) until the alcohol intake was stable. Bottle weights were measured directly before and after the 4-hour access period to the second decimal point to determine fluid intake during this access period. Weights of bottles were corrected for any spillage with fluid bottles placed on empty cages. After three weeks of exposure to the drinking model described above, alcohol and water intake on the day of infusion (Friday) was compared with the average alcohol intake over the preceding three days (Tuesday-Thursday) to determine if drug injection altered voluntary alcohol intake. Mice were injected with i.p. saline for vehicle measurements in week 4 and the following weeks with increasing doses of i.p. injected Example 1; 3 mg/kg in week 5 and 10 mg/kg in week 6. […] . Group size was 10 animals. Data were plotted using GRAPHPAD PRISM 5 software.

[2] = system: wild-type C57BL/6 adult male mice; test: Locomotor activity in locomotor boxes; details: wild-type C57BL/6 male mice, i.p. 3 mg/kg, tracked for 90 minutes
Method: Square locomotor boxes from Med Associates (L 27.3 cm×W 27.3 cm×H 20.3 cm, St. Albans Vt., USA) were used to monitor locomotor activity during the active/dark phase of wild-type C57BL/6 adult male mice. Animals were habituated to the locomotor boxes for 60 minutes one day prior to drug testing. […] . Group size was 5-6 animals. Data were plotted using GRAPHPAD PRISM 5 software.

COc1cccc(N(C(=O)c2cc3ccccc3s2)C2CCN(C)CC2)c1
voluntary alcohol intake (alcohol use) [1]: dose-dependently decreased alcohol use | locomotor activity compared to saline [2]: did not differ in their locomotor activity

This is a selection: effects in other tests are not listed, and their absence says nothing.
